## AlphaSeq binding of Ab-14 heavy chain variants to a spike HR2 peptide

The target is the same throughout: PDVDLGDISGINAS, from the HR2 region of SARS-CoV-2 spike.

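The parent was found by panning a naive human phage display library on the peptide. These sequences belong to a second round, designed from the earlier measurements on random variants of the parent. Group labels follow the data file (Rand: our label for a block that the file lists under HC and that is probably the random mutants of the ten best first-round binders; En: ensemble of fine-tuned language models; HC: hill climbing; Gen: genetic algorithm; Gibbs: Gibbs sampling; a sequence that several methods proposed may carry one label only). The assay is AlphaSeq: two haploid yeast populations carry antibody and antigen on their surface. The frequency of each diploid, read from paired DNA barcodes, reflects how well the two displayed proteins bind. Scores were corrected for input abundance and mapped to Kd with protein pairs of known affinity run in the same pool. Each pool was mated in six replicate cultures.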

Each scFv is VH, a 15-residue (Gly4Ser)3 linker, VL, as in the parent Ab-14, and differs from it in the CDRs of the heavy chain only.
VH: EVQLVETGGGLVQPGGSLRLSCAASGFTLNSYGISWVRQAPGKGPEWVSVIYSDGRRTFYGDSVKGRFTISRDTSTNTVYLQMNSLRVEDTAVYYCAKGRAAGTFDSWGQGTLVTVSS
VL: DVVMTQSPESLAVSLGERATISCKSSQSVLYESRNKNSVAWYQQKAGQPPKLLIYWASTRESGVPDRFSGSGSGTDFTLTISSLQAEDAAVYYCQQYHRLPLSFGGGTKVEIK

The parent's heavy chain CDRs are GFTLNSYGIS, VIYSDGRRTFYGDSVK, GRAAGTFDS; each variant's own CDRs replace them letter for letter.
Variants here have more than six changes.
Scale: log10 of Kd in nM, estimated from mating counts; low values are strong binders.
A mean of the replicates is given; it leaves out those without a signal.
A pair that was not seen in any replicate is written "not detected"; this usually means weak binding, but a binder can also be missed.
Of ten entries with the parent sequence, four were seen in most replicates (averages 0.34 to 2.37), three in one and three in none, so single entries are noisy.
As a blank, each scFv also met three strains without target: over all heavy chain designs, 1% of these pairings were detected, typically at 2.08 and seldom below 0.84. The control count says in how many pairings with the empty strains this scFv gave a signal.
The authors' rule: three or more of the six replicates give a measured affinity, fewer mean a poor binder.
Values of this round are not directly comparable with the first-round values of the same sequences.

| CDR-H1 | CDR-H2 | CDR-H3 | group | mean, log10 nM | seen in | signal with controls |
|---|---|---|---|---|---|---|
| GFDLNEYGIS | VIYADGRRTAYSDSVK | GEVAGTFDV | En_Gen | -0.42 | 6 of 6 | 0 of 18 |
| GFDLDEYGIS | VIYADGRRTAYQDSVK | GNVAGTFDS | En_HC | -1.00 | 6 of 6 | 0 of 18 |
| GFDLNEYGIS | VIYADGMRTSYVDSVK | GNVAGTFDV | En_Gen | -0.33 | 6 of 6 | 1 of 18 |
| GFDLNEYGIS | VIYADGSRTFYADSVK | GEAAGTFDI | En_HC | 0.30 | 6 of 6 | 0 of 18 |
| GFDLNEYGIS | VIYADGVRKFYADKVK | GENAGTFNV | En_HC | -0.26 | 6 of 6 | 0 of 18 |
| GFDLNEYGIS | VIYADGRRTFYTDSVK | GNTAGTFLV | En_HC | -0.33 | 6 of 6 | 2 of 18 |
| GFDLDEYGIS | VIYADGKRTFYADSVK | GNVAGTFDI | En_Gen | -0.56 | 6 of 6 | 0 of 18 |
| GFDLNEYGIS | VIYADGKRTFYSDDVK | GNVAGTFDI | En_HC | -0.44 | 6 of 6 | 1 of 18 |
| GFDLDEYGIS | VIYADGRRTFYQDSVK | GQAAGTFDT | En_HC | -0.93 | 6 of 6 | 0 of 18 |
| GFDLEDYGIS | VIYADGSRTAYADSVK | GNVAGTFDS | En_HC | -0.16 | 6 of 6 | 0 of 18 |
| GFDLNEYGVS | VIYADGMRRAYAANFK | GVTAGGLDI | En_Gibbs | not detected | 0 of 6 | 1 of 18 |
| GFDLNEYGIS | VIYADGLRTAYADSVK | GQNAGTFDI | En_Gen | -0.18 | 6 of 6 | 0 of 18 |
| GFDLNEYGIS | VIYADGMRTAYSDNVK | GETAGTFDI | En_Gen | -0.38 | 6 of 6 | 0 of 18 |
| GKKLDEYGIS | VIYADGKRKFYSNSVK | GGMAGGTTV | En_Gibbs | not detected | 0 of 6 | 1 of 18 |
| GFDLTEYGIS | VIYADGRRTQYQDAVK | GLNGGIIVV | En_Gibbs | 1.36 | 6 of 6 | 0 of 18 |
| GFDLNEYGIS | VIYADGMRTAYQDSVK | GNVAGTFDL | En_Gen | -0.21 | 6 of 6 | 0 of 18 |
| GFDLNEYGIS | VIYADGMRTFYADSVK | GNIAGTFDV | En_HC | -0.88 | 6 of 6 | 1 of 18 |
| GFDLNEYGIS | VIYADGQRTAYADDVK | GTNAGTFDV | En_Gen | -0.31 | 6 of 6 | 2 of 18 |
| GFTLNDYGIS | VEYSDGRRTQYIDFVK | FRRADTFDN | Rand | not detected | 0 of 6 | 0 of 18 |
| GFSLDEYGIS | VIYADGMRTFYQDDVK | GNVAGTFDV | En_HC | 0.04 | 6 of 6 | 0 of 18 |
| GFDLNEYGIS | VIYADGKRTAYADSVK | GEVAGTFDL | En_Gen | -0.20 | 6 of 6 | 0 of 18 |
| GFQLNEYGIS | VIYADGMRSSYQDSVK | GSNSSSFDV | En_Gibbs | 2.08 | 1 of 6 | 1 of 18 |
| GFDLNEYGIS | VIYADGVRTAYADDVK | GTNAGTFDI | En_Gen | 0.03 | 6 of 6 | 0 of 18 |
| GFDLNEYGIS | VIYADGMRTAYADNVK | GNQAGTFDM | En_Gen | -0.35 | 6 of 6 | 0 of 18 |
| GFDLGEYGIS | VIYADGHRTAYSTKVK | GTIGGMFFL | En_Gibbs | not detected | 0 of 6 | 1 of 18 |
| GFDLNEYGIS | VIYADGMRTFYSDSVK | GQLAGTFDS | En_HC | -0.62 | 6 of 6 | 0 of 18 |
| GFDLNEYGIS | VIYADGKRTAYSDSVK | GEVAGTFDM | En_Gen | -0.49 | 6 of 6 | 0 of 18 |
| GFVFDEYGIS | VIYADGIRQFYQDKVK | GEVTGGFDI | En_Gibbs | not detected | 0 of 6 | 0 of 18 |
| GFDLDEYGIS | VIYADGMRKAYADSVK | GEVAGTFDL | En_Gen | -0.43 | 6 of 6 | 0 of 18 |
| GFDLNEYGIS | VIYADGRRTFYADSVK | GEVAGTFVM | En_HC | -0.29 | 6 of 6 | 0 of 18 |
| GFQLDEYGIS | VIYADGRRTFYQDSVK | GEVAGTFDL | En_HC | -0.04 | 6 of 6 | 0 of 18 |
| GFNLNEYGIS | VIYADGRRTFYADSVK | GEIAGTFDV | En_HC | -0.80 | 6 of 6 | 0 of 18 |
| GFDLNEYGIS | VIYADGKRTAYTDSVK | GENAGTFDL | En_Gen | -0.38 | 6 of 6 | 0 of 18 |
| GFDLEDYGIS | VIYADGMRTAYSDSVK | GNNAGTFDV | En_Gen | 0.52 | 6 of 6 | 0 of 18 |
| GFDLNEYGIS | VIYADGMRTAYTDDVK | GEVAGTFDL | En_Gen | -0.36 | 6 of 6 | 0 of 18 |
| GFELDEYGIS | VIYADGHRRAYADDVK | GMHSGSVQH | En_Gibbs | not detected | 0 of 6 | 0 of 18 |
| GFDLNEYGIS | VIYADGRRTFYADSVK | GNMAGTFNV | En_HC | -0.79 | 6 of 6 | 0 of 18 |
| GFDLDEYGIS | VIYADGVRTAYTDSVK | GNVAGTFDV | En_Gen | -0.06 | 6 of 6 | 1 of 18 |
| GFDLNEYGIS | VIYADGVRTYYADDVK | GQNAGTFDV | En_Gen | -0.88 | 6 of 6 | 1 of 18 |
| GFALNEYGIS | VIYADGFRRSYQDKVK | GVNVGEFSV | En_Gibbs | not detected | 0 of 6 | 0 of 18 |
| GFDLNEYGIS | VIYADGMRTAYADSVK | GQLAGTFDT | En_HC | -0.68 | 6 of 6 | 0 of 18 |
| GFQLDEYGIS | VIYADGSRTAYQDSVK | GKYKFSLVV | En_Gibbs | not detected | 0 of 6 | 0 of 18 |
| GFDLNEYGIS | VIYADGMRTAYADKVK | GNTAGTFDI | En_Gen | -0.62 | 6 of 6 | 0 of 18 |
| GFDIEEYGIS | VIYADGKRAQYADAVK | GENMDMMTY | En_Gibbs | 0.43 | 6 of 6 | 0 of 18 |
| GFDLTEYGIS | VIYADGRRTEYSDDVK | GQTAGHFLD | En_Gibbs | 1.70 | 1 of 6 | 0 of 18 |

The measurements come from Li et al. 2023 (doi:10.1038/s41467-023-39022-2) through the FLAb antibody collection.